Laboratory results: patent publication US12171806B2, “Therapeutic regimens and methods for lowering blood glucose and/or body weight using GLP-1R and GCGR balanced agonists” (priority 2021, dated 2024)

Test: Phase 1 MAD study of ALT-801: adverse events (TEAEs), safety overview

CC[C@H](C)[C@H](NC(=O)[C@H](Cc1ccccc1)NC(=O)[C@H](CCC(=O)O)NC(=O)[C@@H]1CCCCNC(=O)CC[C@H](NC(=O)[C@H](CC(=O)O)NC(=O)[C@H](CC(C)C)NC(=O)[C@H](Cc2ccc(O)cc2)NC(=O)[C@H](CCCCN)NC(=O)[C@H](CO)NC(=O)[C@H](Cc2ccc(O)cc2)NC(=O)[C@H](CC(=O)O)NC(=O)[C@H](CO)NC(=O)[C@@H](NC(=O)[C@H](Cc2ccccc2)NC(=O)[C@@H](NC(=O)CNC(=O)[C@H](CCC(N)=O)NC(=O)C(C)(C)NC(=O)[C@@H](N)Cc2c[nH]cn2)[C@@H](C)O)[C@@H](C)O)C(=O)N[C@@H](CCCCNC(=O)[C@H]2O[C@@H](OCCCCCCCCCCCCCCCCCC(=O)O)[C@H](O)[C@@H](O)[C@@H]2O)C(=O)N[C@@H](C)C(=O)N[C@@H](C)C(=O)N1)C(=O)N[C@@H](CCC(N)=O)C(=O)N[C@@H](Cc1c[nH]c2ccccc12)C(=O)N[C@@H](CC(C)C)C(=O)N[C@@H](CC(C)C)C(=O)N[C@@H](CCC(N)=O)C(=O)N[C@H](C(N)=O)[C@@H](C)O [ALT-801, pemvidutide]
TEAE Injection site bruising; PLT; n (M3 2.4 mg (N = 11)): 0 | TEAE Injection site bruising; Severe; % (M3 2.4 mg (N = 11)): (0.0%) | TEAE Injection site bruising; Severe; n (M3 2.4 mg (N = 11)): 0 | TEAE Injection site dermatitis; Mild; % (M3 2.4 mg (N = 11)): (0.0%) | TEAE Injection site dermatitis; Mild; n (M3 2.4 mg (N = 11)): 0 | TEAE Injection site dermatitis; Moderate; % (M3 2.4 mg (N = 11)): (0.0%) | TEAE Injection site dermatitis; Moderate; n (M3 2.4 mg (N = 11)): 0 | TEAE Injection site dermatitis; PLT; % (M3 2.4 mg (N = 11)): (0.0%) | TEAE Injection site dermatitis; PLT; n (M3 2.4 mg (N = 11)): 0 | TEAE Injection site dermatitis; Severe; % (M3 2.4 mg (N = 11)): (0.0%) | TEAE Injection site dermatitis; Severe; n (M3 2.4 mg (N = 11)): 0 | TEAE Nausea; Mild; % (M3 2.4 mg (N = 11)): (45.5%) | TEAE Nausea; Mild; n (M3 2.4 mg (N = 11)): 5 | TEAE Nausea; Moderate; % (M3 2.4 mg (N = 11)): (45.5%) | TEAE Nausea; Moderate; n (M3 2.4 mg (N = 11)): 5 | TEAE Nausea; PLT; % (M3 2.4 mg (N = 11)): (0.0%) | TEAE Nausea; PLT; n (M3 2.4 mg (N = 11)): 0 | TEAE Nausea; Severe; % (M3 2.4 mg (N = 11)): (0.0%) | TEAE Nausea; Severe; n (M3 2.4 mg (N = 11)): 0 | TEAE Palpitation; Mild; % (M3 2.4 mg (N = 11)): (9.1%) | TEAE Palpitation; Mild; n (M3 2.4 mg (N = 11)): 1 | TEAE Palpitation; Moderate; % (M3 2.4 mg (N = 11)): (0.0%) | TEAE Palpitation; Moderate; n (M3 2.4 mg (N = 11)): 0 | TEAE Palpitation; PLT; % (M3 2.4 mg (N = 11)): (0.0%) | TEAE Palpitation; PLT; n (M3 2.4 mg (N = 11)): 0 | TEAE Palpitation; Severe; % (M3 2.4 mg (N = 11)): (0.0%) | TEAE Palpitation; Severe; n (M3 2.4 mg (N = 11)): 0 | TEAE Peripheral swelling; Mild; % (M3 2.4 mg (N = 11)): (0.0%) | TEAE Peripheral swelling; Mild; n (M3 2.4 mg (N = 11)): 0 | TEAE Peripheral swelling; Moderate; % (M3 2.4 mg (N = 11)): (0.0%) | TEAE Peripheral swelling; Moderate; n (M3 2.4 mg (N = 11)): 0 | TEAE Peripheral swelling; PLT; % (M3 2.4 mg (N = 11)): (0.0%) | TEAE Peripheral swelling; PLT; n (M3 2.4 mg (N = 11)): 0 | TEAE Peripheral swelling; Severe; % (M3 2.4 mg (N = 11)): (0.0%) | TEAE Peripheral swelling; Severe; n (M3 2.4 mg (N = 11)): 0 | TEAE Rectal haemorrhage; Mild; % (M3 2.4 mg (N = 11)): (9.1%) | TEAE Rectal haemorrhage; Mild; n (M3 2.4 mg (N = 11)): 1 | TEAE Rectal haemorrhage; Moderate; % (M3 2.4 mg (N = 11)): (0.0%) | TEAE Rectal haemorrhage; Moderate; n (M3 2.4 mg (N = 11)): 0 | TEAE Rectal haemorrhage; PLT; % (M3 2.4 mg (N = 11)): (0.0%) | TEAE Rectal haemorrhage; PLT; n (M3 2.4 mg (N = 11)): 0 | TEAE Rectal haemorrhage; Severe; % (M3 2.4 mg (N = 11)): (0.0%) | TEAE Rectal haemorrhage; Severe; n (M3 2.4 mg (N = 11)): 0 | TEAE Tachycardia; Mild; % (M3 2.4 mg (N = 11)): (9.1%) | TEAE Tachycardia; Mild; n (M3 2.4 mg (N = 11)): 1 | TEAE Tachycardia; Moderate; % (M3 2.4 mg (N = 11)): (0.0%) | TEAE Tachycardia; Moderate; n (M3 2.4 mg (N = 11)): 0 | TEAE Tachycardia; PLT; % (M3 2.4 mg (N = 11)): (0.0%) | TEAE Tachycardia; PLT; n (M3 2.4 mg (N = 11)): 0 | TEAE Tachycardia; Severe; % (M3 2.4 mg (N = 11)): (0.0%) | TEAE Tachycardia; Severe; n (M3 2.4 mg (N = 11)): 0 | TEAE Tooth impacted; Mild; % (M3 2.4 mg (N = 11)): (0.0%) | TEAE Tooth impacted; Mild; n (M3 2.4 mg (N = 11)): 0 | TEAE Tooth impacted; Moderate; % (M3 2.4 mg (N = 11)): (0.0%) | TEAE Tooth impacted; Moderate; n (M3 2.4 mg (N = 11)): 0 | TEAE Tooth impacted; PLT; % (M3 2.4 mg (N = 11)): (0.0%) | TEAE Tooth impacted; PLT; n (M3 2.4 mg (N = 11)): 0 | TEAE Tooth impacted; Severe; % (M3 2.4 mg (N = 11)): (0.0%) | TEAE Tooth impacted; Severe; n (M3 2.4 mg (N = 11)): 0 | TEAE Toothache; Mild; % (M3 2.4 mg (N = 11)): (0.0%) | TEAE Toothache; Mild; n (M3 2.4 mg (N = 11)): 0 | TEAE Toothache; Moderate; % (M3 2.4 mg (N = 11)): (0.0%) | TEAE Toothache; Moderate; n (M3 2.4 mg (N = 11)): 0 | TEAE Toothache; PLT; % (M3 2.4 mg (N = 11)): (0.0%) | TEAE Toothache; PLT; n (M3 2.4 mg (N = 11)): 0 | TEAE Toothache; Severe; % (M3 2.4 mg (N = 11)): (0.0%) | TEAE Toothache; Severe; n (M3 2.4 mg (N = 11)): 0 | TEAE Vessel puncture site pain; Mild; % (M3 2.4 mg (N = 11)): (0.0%) | TEAE Vessel puncture site pain; Mild; n (M3 2.4 mg (N = 11)): 0 | TEAE Vessel puncture site pain; Moderate; % (M3 2.4 mg (N = 11)): (0.0%) | TEAE Vessel puncture site pain; Moderate; n (M3 2.4 mg (N = 11)): 0 | TEAE Vessel puncture site pain; PLT; % (M3 2.4 mg (N = 11)): (0.0%) | TEAE Vessel puncture site pain; PLT; n (M3 2.4 mg (N = 11)): 0 | TEAE Vessel puncture site pain; Severe; % (M3 2.4 mg (N = 11)): (0.0%) | TEAE Vessel puncture site pain; Severe; n (M3 2.4 mg (N = 11)): 0 | TEAE Vomiting; Mild; % (M3 2.4 mg (N = 11)): (45.5%) | TEAE Vomiting; Mild; n (M3 2.4 mg (N = 11)): 5 | TEAE Vomiting; Moderate; % (M3 2.4 mg (N = 11)): (27.3%) | TEAE Vomiting; Moderate; n (M3 2.4 mg (N = 11)): 3 | TEAE Vomiting; PLT; % (M3 2.4 mg (N = 11)): (0.0%) | TEAE Vomiting; PLT; n (M3 2.4 mg (N = 11)): 0 | TEAE Vomiting; Severe; % (M3 2.4 mg (N = 11)): (0.0%) | TEAE Vomiting; Severe; n (M3 2.4 mg (N = 11)): 0 | TEAE Cough, maximum severity Mild, subjects % (M3 2.4 mg ALT-801 (N = 11)): (9.1%) | TEAE Cough, maximum severity Mild, subjects n (M3 2.4 mg ALT-801 (N = 11)): 1 | TEAE Cough, maximum severity Moderate, subjects % (M3 2.4 mg ALT-801 (N = 11)): (0.0%) | TEAE Cough, maximum severity Moderate, subjects n (M3 2.4 mg ALT-801 (N = 11)): 0 | TEAE Cough, maximum severity PLT, subjects % (M3 2.4 mg ALT-801 (N = 11)): (0.0%) | TEAE Cough, maximum severity PLT, subjects n (M3 2.4 mg ALT-801 (N = 11)): 0 | TEAE Cough, maximum severity Severe, subjects % (M3 2.4 mg ALT-801 (N = 11)): (0.0%)
